This experiment concerns primary CD138+ MM cells. Description: EMMA ex vivo platform, live cell imaging, 96 hours, collagen matrix with bone marrow stroma and patient plasma. Type of experiment: cell-based. Details: scale not given here. An excerpt:
For clinical robustness, we tested the activity of MA9 in MM patient samples using our ex vivo mathematical myeloma advisor (EMMA) platform (Supplementary Table 1). […]
For these assays, we used a novel EMMA platform developed at Moffitt. Further details are included in the supplemental Materials. […]
400 Ex vivo drug sensitivity characterization
401 An ex vivo assay was used to quantify the chemosensitivity of primary MM cells. Fresh BM
402 aspirate cells were enriched for CD138+ expression using Miltenyi (Bergisch Gladbach, Germany)
MM cells (CD138+) were seeded in Corning
404 Cell BIND 384 well plates (Corning, NY) with collagen I and previously established human-
407 inactivated), penicillin/streptomycin, and patient-derived plasma (10%, freshly obtained from
409 added using a robotic plate handler so that every drug/combination was tested at 5 (fixed
410 concentration ratio, for combinations) concentrations (1:3 serial dilution) in two replicates.
411 Negative controls (supplemented growth media with and without the vehicle control dimethyl
412 sulfoxide [DMSO]) were included, as well as positive controls for each drug (cell line MM1.S at
413 highest drug concentration). Plates were placed in a motorized stage microscope (EVOS Auto FL,
414 Life Technologies, Carlsbad, CA) equipped with an incubator and maintained at 5% CO2 and 37
415 °C. […]
Digital image analysis computes the percent
418 viability of MM cells for each time point and experimental condition (drug and concentration)

As for `CC(C)C[C@H](NC(=O)[C@H](Cc1ccccc1)NC(=O)c1cnccn1)B(O)O` [BTZ, bortezomib], the AUC was determined as 54.219 (Pt653, LRMM); 53.735 (Pt718, SMOL); 54.103 (Pt865, LRMM); 53.664 (Pt885, NDMM); 55.241 (Pt945, LRMM); 58.089 (Pt948, LRMM). Moreover, the AUC (Pt951, ERMM) amounted to 57.542.

Values taken from publication PMC12363935, “Unc-51 Like Kinase 3 (ULK3) is essential for autophagy and cell survival in multiple myeloma” (Research Square, 2025).
